Test results reported in paper PMC3049920 (Journal of immunology (Baltimore, Md. : 1950), 2010).

System: B16 melanoma tumors
Test: B16 melanoma tumors in C57BL/6 mice
Assay type: in vivo, mouse
Details: bid

Question: How did the “effect on B16 tumor growth” value (1 × 10^5 IU) turn out when interleukin-2 [IL-2] was run?
Answer: little effect

Question: And the “growth inhibition of B16 tumors” value (C57BL/6 mice, 3 × 10^5 IU, 5d/wk, ip)?
Answer: ~ 61%
